Data on 19 molecules can be found in paper PMC10419047, “Enzymatic Redox Properties and Cytotoxicity of Irreversible Nitroaromatic Thioredoxin Reductase Inhibitors in Mammalian Cells” (2023).

Sequences of proteins named here, by UniProt entry; tags and fusion partners are left off. Residues count along the entry.
UniProt P00390, 44-522 limits assumed: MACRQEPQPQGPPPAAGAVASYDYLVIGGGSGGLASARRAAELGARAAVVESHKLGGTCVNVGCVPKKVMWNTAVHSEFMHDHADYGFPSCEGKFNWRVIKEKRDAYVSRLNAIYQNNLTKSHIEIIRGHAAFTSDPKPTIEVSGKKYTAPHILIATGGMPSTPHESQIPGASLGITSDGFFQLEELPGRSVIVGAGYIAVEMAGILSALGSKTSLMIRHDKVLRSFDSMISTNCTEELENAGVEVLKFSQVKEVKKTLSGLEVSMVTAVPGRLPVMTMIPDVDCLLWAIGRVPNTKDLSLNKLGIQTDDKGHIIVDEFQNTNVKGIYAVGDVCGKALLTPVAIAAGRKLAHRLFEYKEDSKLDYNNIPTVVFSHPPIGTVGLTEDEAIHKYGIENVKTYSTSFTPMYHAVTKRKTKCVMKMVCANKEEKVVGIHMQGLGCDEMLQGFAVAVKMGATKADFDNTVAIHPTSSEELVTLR
UniProt P05982, 2-274 limits assumed: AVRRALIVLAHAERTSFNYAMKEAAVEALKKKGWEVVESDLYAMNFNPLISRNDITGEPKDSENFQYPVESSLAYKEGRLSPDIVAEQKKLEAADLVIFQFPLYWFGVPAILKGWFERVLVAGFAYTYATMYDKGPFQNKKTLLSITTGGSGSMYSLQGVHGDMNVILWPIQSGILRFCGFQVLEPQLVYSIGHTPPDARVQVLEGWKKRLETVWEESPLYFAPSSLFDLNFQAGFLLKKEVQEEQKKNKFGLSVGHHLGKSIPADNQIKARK

Data set [1] relates to GR. The following applies: cited from earlier work.
Data set [2] in a line: Single-electron reduction potential at pH 7.0 (E^1_7). The following applies: calculated from log kcat/Km(avge) of P-450R and ADR/ADX reactions by Equation (A1).
Data set [3] concerns MH22a cells. As to the kind of experiment: Cytotoxicity in MH22a cells (Trypan blue, cell counting). The following applies: for cytotoxicity greater than expected from redox cycling activity: MH22a cells; for IC50: read-out: cL50 MH22a, concentration causing 50% cell death, 24 h.
Data set [4] relates to TrxR. The following applies: cited from earlier work.
For data set [5], the system named is MH22a cells. As to the kind of experiment: Modulation of cytotoxicity in MH22a cells by antioxidants, dicoumarol and cytochrome P-450 inhibitors.
Data set [6] addresses human glutathione reductase (HGR) (Homo sapiens, UniProt P00390). In words: Reduction of nitroaromatics by human glutathione reductase (NADPH:oxidase activity). The following applies: for NADPH:oxidase activity of HGR in the presence of compound: 0.04 s^−1 without compound.
Data set [7] deals with GR in the lysates of MH22a and HCT-116 cells. In words: GR activity in cell lysates. The following applies: 10 µM compound, t = 0 vs 20 min incubation with NADPH; 37 °C.
Data set [8] concerns TrxRs (human TrxR2 and rat TrxR1). In words: Stimulation of NADPH:oxidase activity of TrxRs ('subversive substrate' action).
Data set [9] is described as follows: Reaction of nitroaromatic compounds with reduced glutathione. The following applies: GSH 2.0–10.0 mM, pH 7.0, 25 °C.
In data set [10] the test system is HCT-116 cells. As to the kind of experiment: Growth inhibition of HCT-116 cells (crystal violet).
For data set [11] the following is noted: cited from earlier work.
For data set [12], the system named is MH22a cells. The following applies: read-out: MH22a cL50; previous data; cited from earlier work.
For data set [13], the system named is HCT-116 cells. The following applies: cited from earlier work.
For data set [14], the target named is NAD(P)H:quinone oxidoreductase (NQO1) (Rattus norvegicus, UniProt P05982). In words: Reduction of nitroaromatics by NAD(P)H:quinone oxidoreductase. The following applies: 0.1 M K-phosphate, pH 7.0, 25 °C.
Data set [15] is described as follows: Solubility limit in the enzymatic reaction mixture. The following applies: 0.1 M K-phosphate, pH 7.0, 25 °C.
For data set [16], the system named is TrxR in the lysates of MH22a and HCT-116 cells. As to the kind of experiment: TrxR activity in cell lysates. The following applies: for residual activity of TrxR in cell lysates: both at t = 0 and t = 20 min, 37 °C.
Data set [17] can be described thus: Stability at pH 7.0 and 37 °C (spectral shift). The following applies: pH 7.0, 37 °C.
[18] abbreviates: single-electron reduction midpoint potential, pH 7.0.
[19] abbreviates: read-out: HCT-116 GI50, previous data.

Read-outs that look alike come from different tables or passages of the source.

Regarding `O=[N+]([O-])c1ccc2c(c1)S(=O)(=O)C=C2`, the “Residual Activity (%) GR” value in [1] (Various human cervical carcinoma cells, 20 µM, 0.5 h) was 30–50%. Further, the “E^1_7(calc.)” value in data set [2] is on record as −0.304 V. Moreover, in data set [3], the “cytotoxicity greater than expected from redox cycling activity” value (“cytotoxicity greater than expected” below) was “at least 10 fold” and the IC50 is 1.8 µM. Besides, the “Residual Activity (%) TrxR” value in [4] (A549 cells, 10 µM, 4 h) is given as 25%. Further, in data set [5] (compound 2.0 µM), the “Cell Viability (%) Additions: None” value was 50.3 ± 5.5%. In addition, the “NADPH:oxidase activity of HGR in the presence of compound” value (shortened to “NADPH:oxidase activity of HGR”) in data set [6] (100 µM compound) fell in the range of 0.08 to 0.09 s⁻¹. Besides, the “time-dependent inhibition of GR in cell lysates” value (from here on “time-dependent inhibition of GR”) in data set [7] is listed as “more pronounced”. Moreover, the “increase of NADPH:oxidase activity of TrxRs” value (shortened to “increase”) in data set [8] (100 µM compound) was 2–2.5 times. Further, the “second-order rate constant of reaction with GSH” value (“second-order rate constant” below) in data set [9] turned out to be 1.1 ± 0.1 M⁻¹ s⁻¹. Besides, the “cytotoxicity greater than expected” value in data set [10] is “at least 10 fold”.

For the molecule `O=[N+]([O-])c1cccs1`, the “E^1_7” value in [11] (setting [18]) is listed as −0.390 V. For the same molecule, in data set [12], the IC50 was 341 µM.

As for p-nitropyridine, the “E^1_7” value in data set [11] is on record as −0.19 V.

For `O=[N+]([O-])c1ccc([N+](=O)[O-])cc1`, the “E^1_7” value in [11] (setting [18]) is listed as −0.255 V. For the same molecule, the GI50 in data set [13] (setting [19]) was 40 µM. Moreover, the IC50 in data set [12] is 12 µM.

Turning to `O=Cc1ccc([N+](=O)[O-])cc1`, the “E^1_7” value in [11] (setting [18]) is recorded as −0.325 V. Moreover, in data set [13] (setting [19]), the GI50 is 50 µM. In data set [12], the IC50 was 200 µM.

On to 2-Nitrothiophene-5-carboxymorpholide, for which the “E^1_7” value in data set [11] (setting [18]) is −0.305 V. Also, in data set [12], the IC50 is 82 µM.

For the molecule `O=[N+]([O-])c1ccccc1`, in [11] (setting [18]), the “E^1_7” value is −0.485 V. Further, in [13] (setting [19]), the 50% growth inhibitory concentration (GI50) is no less than 5000 µM. Moreover, in data set [12], the IC50 is 1800 µM.

In the case of `O=Cc1ccc([N+](=O)[O-])s1`, the “E^1_7” value in data set [11] (setting [18]) is −0.260 V. In addition, in [12], the IC50 was 42 µM.

Consider `O=[N+]([O-])c1ccc(Cl)c([N+](=O)[O-])c1`, for which the “Residual Activity (%) GR” value in [1] (A549 cells, 50 µM, 4 h) is 80%; in data set [1] (HeLa cells, 50 µM, 4 h), 100%. The “E^1_7(calc.)” value in data set [2] is −0.285 V. Moreover, the “cytotoxicity greater than expected” value in data set [3] and in [10] was “at least 10 fold” in each case. In addition, the IC50 in data set [3] turned out to be 1.9 µM. Moreover, the “Residual Activity (%) TrxR” value in [4] (A549 cells, 50 µM, 4 h) is listed as 30%; in data set [4] (HeLa cells, 50 µM, 4 h) it was 30%. Besides, the “Cell Viability (%) Additions: None” value in [5] (compound 2.0 µM) is listed as 49.3 ± 4.2%. Moreover, the “kcat NQO1 (in parentheses)” value in data set [14] is no more than 0.1 s⁻¹. For the same molecule, the “NADPH:oxidase activity of HGR” value in data set [6] (100 µM compound) lay within 0.08 to 0.09 s⁻¹. Moreover, the “time-dependent inhibition of GR” value in data set [7] was “less pronounced”. The “increase” value in data set [8] (100 µM compound) was 2–2.5 times.

On to `O=[N+]([O-])c1ccc(/C=N/O)o1`, for which the “E^1_7” value in data set [11] (setting [18]) is −0.255 V. Further, the GI50 in data set [13] (setting [19]) was 70 µM. Moreover, the IC50 in [12] is 40.5 µM.

`O=[N+]([O-])c1ccc(C=NO)s1`: the results for the IC50 in [3] and in data set [12] were 118 µM and 145 µM, respectively. For the same molecule, the “E^1_7” value in data set [11] (setting [18]) is on record as −0.280 V. For the same molecule, in [13] (setting [19]), the concentration for 50% growth inhibition (GI50) was 20 µM.

Consider `Cc1ccc(S(=O)(=O)c2ccc([N+](=O)[O-])o2)cc1`, for which the “E^1_7(calc.)” value in data set [2] is listed as −0.287 V. In data set [3], the “cytotoxicity greater than expected” value is recorded as “at least 10 fold” and the IC50 amounted to 1 µM. Moreover, the limit of solubility in data set [15] is listed as 70 µM. Also, the “residual activity of TrxR in cell lysates” value in data set [16] (10 µM compound) is listed as “very small”. Moreover, the “Cell Viability (%) Additions: None” value in data set [5] (compound 1.0 µM) was 45.1 ± 3.5%. The “kcat NQO1 (in parentheses)” value in data set [14] was no more than 0.25 s⁻¹. Besides, the “reduction rate of added cytochrome c relative to the NADPH oxidation rate” value in data set [6] (50 µM cytochrome c, HGR-catalyzed reduction) worked out at 60%. Moreover, the “kcat HGR” value in [6] (pH 7.0, 25 °C) was no less than 0.35 s⁻¹. The “time-dependent inhibition of GR” value in data set [7] was “less pronounced”. Further, the “increase” value in data set [8] (70 µM compound) is 2–2.5 times. The “second-order rate constant” value in [9] amounted to 7.2 ± 0.3 M⁻¹ s⁻¹. Further, in data set [10], the “cytotoxicity greater than expected” value was “at least 10 fold”.

`O=[N+]([O-])c1ccccc1[N+](=O)[O-]`: the “E^1_7” value in data set [11] (setting [18]) was −0.287 V. Further, in data set [13] (setting [19]), the GI50 is 60 µM. The IC50 in [12] is 25.4 µM.

As for `COc1ccc([N+](=O)[O-])c(S(=O)(=O)c2ccc(Cl)cc2)n1`, the “E^1_7(calc.)” value in [2] was −0.365 V. Moreover, the “cytotoxicity greater than expected” value in data set [3] and in data set [10] was “at least 10 fold” throughout. The IC50 in data set [3] is 6.6 µM. The “Residual Activity (%) TrxR” value in [4] (BF16-F10 cells, 2.0 µM, 3 h) was 50%; in data set [4] (BF16-F10 cells, 20 µM, 3 h) it was 10%; in [4] (HCT-116 cells, 3.3 µM, 3 h), 20%. In addition, the “residual activity of TrxR in cell lysates” value in data set [16] (10 µM compound) is “very small”. The 50% growth inhibitory concentration (GI50) in data set [13] (read-out: GI50 HCT-116, 48 h) is 2.9 µM. Further, the “Cell Viability (%) Additions: None” value in data set [5] (compound 6.0 µM) came to 49.9 ± 4.5%. Moreover, the “kcat NQO1 (in parentheses)” value in [14] came out at 0.10 ± 0.02 s⁻¹. In addition, the “NADPH:oxidase activity of HGR” value in data set [6] (100 µM compound) fell in the range of 0.08 to 0.09 s⁻¹. In addition, in data set [7], the “time-dependent inhibition of GR” value is recorded as “less pronounced”. For the same molecule, the “increase” value in [8] (100 µM compound) was 2–2.5 times. Moreover, the “second-order rate constant” value in data set [9] was 4.8 ± 0.3 M⁻¹ s⁻¹.

Take `O=C(Oc1cc(S(=O)(=O)c2ccccc2)ccc1[N+](=O)[O-])c1ccc(Cl)cc1`: in data set [17], the “t1/2 of λmax shift from 280 nm to 316 nm (instability)” value is recorded as ~ 1.5 h. The “E^1_7(calc.)” value in data set [2] is −0.326 V. Besides, the IC50 in [3] was determined as 28 µM. The “inhibition of TrxR in cell lysates in short-term experiments” value in data set [16] (10 µM compound, up to 20 min) is listed as “efficiently inhibited”. Also, the “NADPH:oxidase activity of HGR” value in [6] (70 µM compound) lay in the range of 0.08 to 0.09 s⁻¹. For the same molecule, the “increase” value in [8] (70 µM compound) was 2–2.5 times. In addition, in [9], the “second-order rate constant” value is on record as ~ 0.5 M^−1s^−1.

auranofin: the “suppression of the rate of DTNB reduction in cell lysates” value in [16] (2.0 µM, 20 min incubation with NADPH) is reported as ~ 95%.

For `CC(=O)c1ccc([N+](=O)[O-])cc1`, the “E^1_7” value in [11] (setting [18]) is recorded as −0.355 V. Besides, the GI50 in data set [13] (setting [19]) was 400 µM. Also, the IC50 in data set [12] is 239 µM.

As for `O=C(O)c1ccc([N+](=O)[O-])cc1`, the “E^1_7” value in data set [11] (setting [18]) is on record as −0.425 V. The GI50 in data set [13] (setting [19]) was no less than 6000 µM. Besides, the IC50 in [12] is no less than 6000 µM.

Regarding `O=C1CN(/N=C/c2ccc([N+](=O)[O-])o2)C(=O)N1`, the values for the IC50 in data set [3] and in data set [12] were 320 µM and 387 µM, respectively. Further, the “E^1_7” value in data set [11] (setting [18]) was −0.255 V. In [13] (setting [19]), the GI50 is 60 µM.

As a reminder, the GI50 is the concentration giving 50% growth inhibition.
